## Membrane permeability of cyclic peptides

Collected by the curators of CycPeptMPDB (Li et al. 2023) from Kelly et al. 2021, doi:10.1021/jacs.0c06115.

PAMPA is the parallel artificial membrane permeability assay, which has no cells and reads passive diffusion.
MDCK values are permeabilities across Madin-Darby canine kidney cell monolayers.
Permeability is in 10^-6 cm/s, converted from the database's log10 values; higher is more permeable.
Cells with "n/a" have no entry in this list.

| SMILES | PAMPA (10^-6 cm/s) | MDCK (10^-6 cm/s) |
|---|---|---|
| CC(=O)N1CCC[C@H]1C(=O)N(C)[C@H](CC(C)C)C(=O)N[C@@H]1C(=O)N[C@@H](CC(C)C)C(=O)N(C)[C@H](CC(C)C)C(=O)N[C@H](CC(C)C)C(=O)N(C)[C@H](C)C(=O)N[C@H](CC(C)C)C(=O)N2CCC[C@@H]2C(=O)O[C@@H]1C | 0.4 | n/a |
| CC(=O)N1CCC[C@@H]1C(=O)N(C)[C@@H](CC(C)C)C(=O)N[C@@H]1C(=O)N(C)[C@@H](CC(C)C)C(=O)N[C@@H](CC(C)C)C(=O)N[C@@H](CC(C)C)C(=O)N[C@@H](C)C(=O)N[C@H](CC(C)C)C(=O)N2CCC[C@H]2C(=O)O[C@@H]1C | 0.04 | n/a |
| CC(=O)N1CCC[C@H]1C(=O)N(C)[C@@H](CC(C)C)C(=O)N[C@@H]1C(=O)N[C@H](CC(C)C)C(=O)N[C@H](CC(C)C)C(=O)N(C)[C@@H](CC(C)C)C(=O)N(C)[C@@H](C)C(=O)N[C@H](CC(C)C)C(=O)N2CCC[C@@H]2C(=O)O[C@@H]1C | 0.4 | n/a |
| CC(=O)N1CCC[C@@H]1C(=O)N(C)[C@H](CC(C)C)C(=O)N[C@@H]1C(=O)N[C@H](CC(C)C)C(=O)N[C@H](CC(C)C)C(=O)N(C)[C@H](CC(C)C)C(=O)N(C)[C@@H](C)C(=O)N[C@H](CC(C)C)C(=O)N2CCC[C@H]2C(=O)O[C@@H]1C | 3.2 | n/a |
| CC(=O)N1CCC[C@H]1C(=O)N(C)[C@@H](CC(C)C)C(=O)N[C@@H]1C(=O)N(C)[C@@H](CC(C)C)C(=O)N[C@H](CC(C)C)C(=O)N(C)[C@@H](CC(C)C)C(=O)N(C)[C@@H](C)C(=O)N[C@H](CC(C)C)C(=O)N2CCC[C@H]2C(=O)O[C@@H]1C | 2 | n/a |
| CC(=O)N1CCC[C@H]1C(=O)N[C@@H]1C(=O)N[C@H](CC(C)C)C(=O)N(C)[C@H](CC(C)C)C(=O)N[C@H](CC(C)C)C(=O)N[C@H](CC(C)C)C(=O)N(C)[C@H](C)C(=O)N[C@@H](CC(C)C)C(=O)N2CCC[C@@H]2C(=O)O[C@@H]1C | 13 | n/a |
| CC(=O)N1CCC[C@H]1C(=O)N[C@@H]1C(=O)N[C@H](CC(C)C)C(=O)N[C@@H](CC(C)C)C(=O)N(C)[C@H](CC(C)C)C(=O)N[C@H](CC(C)C)C(=O)N[C@H](C)C(=O)N[C@@H](CC(C)C)C(=O)N2CCC[C@@H]2C(=O)O[C@@H]1C | 5.5 | n/a |
| CC(=O)N1CCC[C@@H]1C(=O)N(C)[C@H](CC(C)C)C(=O)N[C@@H]1C(=O)N(C)[C@H](CC(C)C)C(=O)N(C)[C@H](CC(C)C)C(=O)N[C@H](CC(C)C)C(=O)N(C)[C@@H](C)C(=O)N[C@H](CC(C)C)C(=O)N2CCC[C@H]2C(=O)O[C@@H]1C | 6.5 | n/a |
| CC(=O)N1CCC[C@H]1C(=O)N(C)[C@@H](CC(C)C)C(=O)N[C@@H]1C(=O)N[C@H](CC(C)C)C(=O)N(C)[C@H](CC(C)C)C(=O)N[C@H](CC(C)C)C(=O)N[C@H](C)C(=O)N[C@H](CC(C)C)C(=O)N2CCC[C@H]2C(=O)O[C@@H]1C | 0.71 | n/a |
| CC(=O)N1CCC[C@@H]1C(=O)N(C)[C@H](CC(C)C)C(=O)N[C@@H]1C(=O)N[C@@H](CC(C)C)C(=O)N[C@@H](CC(C)C)C(=O)N(C)[C@@H](CC(C)C)C(=O)N(C)[C@@H](C)C(=O)N[C@H](CC(C)C)C(=O)N2CCC[C@@H]2C(=O)O[C@@H]1C | 0.17 | n/a |
| CC(=O)N1CCC[C@@H]1C(=O)N(C)[C@H](CC(C)C)C(=O)N[C@@H]1C(=O)N[C@@H](CC(C)C)C(=O)N(C)[C@H](CC(C)C)C(=O)N(C)[C@@H](CC(C)C)C(=O)N(C)[C@@H](C)C(=O)N[C@H](CC(C)C)C(=O)N2CCC[C@H]2C(=O)O[C@@H]1C | 1.3 | n/a |
| CC(=O)N1CCC[C@@H]1C(=O)N(C)[C@@H](CC(C)C)C(=O)N[C@@H]1C(=O)N(C)[C@H](CC(C)C)C(=O)N(C)[C@@H](CC(C)C)C(=O)N[C@@H](CC(C)C)C(=O)N(C)[C@@H](C)C(=O)N[C@H](CC(C)C)C(=O)N2CCC[C@@H]2C(=O)O[C@@H]1C | 8.1 | n/a |
| CC(=O)N1CCC[C@H]1C(=O)N(C)[C@H](CC(C)C)C(=O)N[C@@H]1C(=O)N(C)[C@@H](CC(C)C)C(=O)N(C)[C@H](CC(C)C)C(=O)N(C)[C@@H](CC(C)C)C(=O)N(C)[C@@H](C)C(=O)N[C@@H](CC(C)C)C(=O)N2CCC[C@@H]2C(=O)O[C@@H]1C | 5.1 | n/a |
| CC(=O)N1CCC[C@H]1C(=O)N(C)[C@H](CC(C)C)C(=O)N[C@@H]1C(=O)N[C@@H](CC(C)C)C(=O)N[C@@H](CC(C)C)C(=O)N(C)[C@@H](CC(C)C)C(=O)N[C@@H](C)C(=O)N[C@@H](CC(C)C)C(=O)N2CCC[C@H]2C(=O)O[C@@H]1C | 1.3 | n/a |
| CC(=O)N1CCC[C@H]1C(=O)N(C)[C@H](CC(C)C)C(=O)N[C@@H]1C(=O)N[C@H](CC(C)C)C(=O)N[C@@H](CC(C)C)C(=O)N[C@@H](CC(C)C)C(=O)N(C)[C@@H](C)C(=O)N[C@@H](CC(C)C)C(=O)N2CCC[C@H]2C(=O)O[C@@H]1C | 1.3 | n/a |
| CC(=O)N[C@@H]1C(=O)N2CCC[C@H]2C(=O)N(C)[C@H](CC(C)C)C(=O)N[C@@H](CC(C)C)C(=O)N[C@H](CC(C)C)C(=O)N[C@H](CC(C)C)C(=O)N[C@@H](C)C(=O)N[C@@H](CC(C)C)C(=O)N2CCC[C@@H]2C(=O)O[C@@H]1C | 0.035 | n/a |
| CC(=O)N1CCC[C@H]1C(=O)N(C)[C@@H](CC(C)C)C(=O)N[C@@H]1C(=O)N[C@@H](CC(C)C)C(=O)N[C@@H](CC(C)C)C(=O)N[C@H](CC(C)C)C(=O)N[C@H](C)C(=O)N[C@@H](CC(C)C)C(=O)N2CCC[C@@H]2C(=O)O[C@@H]1C | 0.2 | n/a |
| CC(=O)N1CCC[C@H]1C(=O)N(C)[C@@H](CC(C)C)C(=O)N[C@@H]1C(=O)N[C@@H](CC(C)C)C(=O)N(C)[C@@H](CC(C)C)C(=O)N(C)[C@H](CC(C)C)C(=O)N(C)[C@@H](C)C(=O)N[C@H](CC(C)C)C(=O)N2CCC[C@@H]2C(=O)O[C@@H]1C | 0.79 | n/a |
| CC(=O)N1CCC[C@H]1C(=O)N(C)[C@@H](CC(C)C)C(=O)N[C@@H]1C(=O)N(C)[C@H](CC(C)C)C(=O)N(C)[C@@H](CC(C)C)C(=O)N[C@@H](CC(C)C)C(=O)N(C)[C@@H](C)C(=O)N[C@H](CC(C)C)C(=O)N2CCC[C@@H]2C(=O)O[C@@H]1C | 8.7 | 26 |
| CC(=O)N1CCC[C@H]1C(=O)N[C@@H]1C(=O)N(C)[C@H](CC(C)C)C(=O)N(C)[C@H](CC(C)C)C(=O)N(C)[C@@H](CC(C)C)C(=O)N(C)[C@H](CC(C)C)C(=O)N(C)[C@H](C)C(=O)N[C@@H](CC(C)C)C(=O)N2CCC[C@@H]2C(=O)O[C@@H]1C | 8.9 | n/a |
| CC(=O)N1CCC[C@@H]1C(=O)N(C)[C@@H](CC(C)C)C(=O)N[C@@H]1C(=O)N(C)[C@H](CC(C)C)C(=O)N[C@H](CC(C)C)C(=O)N[C@H](CC(C)C)C(=O)N(C)[C@@H](C)C(=O)N[C@H](CC(C)C)C(=O)N2CCC[C@H]2C(=O)O[C@@H]1C | 2.1 | n/a |

Extract of 3 entries:

| SMILES | PAMPA (10^-6 cm/s) | MDCK (10^-6 cm/s) |
|---|---|---|
| CC(=O)N1CCC[C@H]1C(=O)N(C)[C@@H](CC(C)C)C(=O)N[C@@H]1C(=O)N[C@@H](CC(C)C)C(=O)N(C)[C@@H](CC(C)C)C(=O)N(C)[C@H](CC(C)C)C(=O)N(C)[C@@H](C)C(=O)N[C@H](CC(C)C)C(=O)N2CCC[C@@H]2C(=O)O[C@@H]1C | 0.79 | n/a |
| CC(=O)N1CCC[C@@H]1C(=O)N(C)[C@H](CC(C)C)C(=O)N[C@@H]1C(=O)N[C@@H](CC(C)C)C(=O)N[C@@H](CC(C)C)C(=O)N(C)[C@@H](CC(C)C)C(=O)N(C)[C@@H](C)C(=O)N[C@H](CC(C)C)C(=O)N2CCC[C@@H]2C(=O)O[C@@H]1C | 0.17 | n/a |
| CC(=O)N1CCC[C@H]1C(=O)N[C@@H]1C(=O)N[C@H](CC(C)C)C(=O)N(C)[C@H](CC(C)C)C(=O)N[C@H](CC(C)C)C(=O)N[C@H](CC(C)C)C(=O)N(C)[C@H](C)C(=O)N[C@@H](CC(C)C)C(=O)N2CCC[C@@H]2C(=O)O[C@@H]1C | 13 | n/a |

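The data file gives no further conditions (lipid, pH, time, direction or concentration), and values from different papers need not be comparable. Other peptides of the study may be missing here. Peptides that the database sets to -10, its floor, are left out.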